## Yeast mating assay B: variants of the scFv Ab-14

Data: MIT Lincoln Laboratory AlphaSeq set, Li et al. 2023, doi:10.1038/s41467-023-39022-2, as distributed in FLAb.

Target: peptide PDVDLGDISGINAS, taken from heptad repeat 2 (HR2) of SARS-CoV-2 spike.

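The starting antibody came from a phage panning campaign against this peptide. These sequences belong to a second round, designed from the earlier measurements on random variants of the parent. Their group label is 14L_GP_Gen (GP: Gaussian process model; Gen: genetic algorithm; a sequence that several methods proposed may carry one label only). The assay is AlphaSeq: two haploid yeast populations carry antibody and antigen on their surface. Binding brings cells together so that they mate, and sequencing counts the barcode pairs among the diploids. Read counts were normalised to the haploid input and turned into Kd by a linear fit to BCL2-family pairs of known affinity, for each replicate. Mating was done six times.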

Parent scFv Ab-14: VH joined to VL by a 15-residue (Gly4Ser)3 linker. Changes lie in the light chain CDRs alone.
VH: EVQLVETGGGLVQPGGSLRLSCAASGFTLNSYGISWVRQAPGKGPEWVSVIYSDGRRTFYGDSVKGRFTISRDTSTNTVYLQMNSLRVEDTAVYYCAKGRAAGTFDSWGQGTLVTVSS
VL: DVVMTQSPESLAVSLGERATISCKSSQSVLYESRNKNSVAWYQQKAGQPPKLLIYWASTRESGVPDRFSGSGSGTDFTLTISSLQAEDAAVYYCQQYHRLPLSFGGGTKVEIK

Each variant is given by its three light chain CDRs, as the data file delimits them; those of the parent are KSSQSVLYESRNKNSVA, WASTRES, QQYHRLPLS. Numbers give log10(Kd / nM), so 0 is 1 nM and 3 is 1 µM. Smaller is tighter. The mean shown is taken over the replicates in which the pair was detected. The authors' rule: three or more of the six replicates give a measured affinity, fewer mean a poor binder.

| CDR-L1 | CDR-L2 | CDR-L3 | log10 Kd (nM) by replicate | mean log10 Kd (nM) | empty controls |
|---|---|---|---|---|---|
| KLSQSVLYESRNKNSVA | NASTRES | QQYHRLPLE | 0.13 -0.07 -0.23 -0.35 -0.26 -0.10 | -0.15 | 2/18 (2.98) |
| KLSQSVQYESRNKNNVA | HASTRES | QQYHRLPLS | -0.01 0.10 -0.01 -0.42 -0.10 0.05 | -0.06 | 0/18 |
| KLPQSWGYESRNKNSVA | NASTRES | QQYHRLPLS | 0.04 0.19 -0.14 0.21 0.25 0.19 | 0.12 | 1/18 (1.49) |
| KFSQSELYESRNKNSVA | NASQRCS | QQYHRLPLS | -0.14 -0.27 -0.14 -0.20 -0.24 -0.11 | -0.18 | 2/18 (1.72) |
| KVYQSNLYESRNKNSVA | NASQRES | QQYHRLPLS | 0.39 -0.18 -0.09 -0.18 -0.29 0.11 | -0.04 | 1/18 (2.33) |
| KLSQSVLYEERNSNSVA | NASTRMS | QQYHRLPLS | -0.05 -0.24 -0.43 -0.39 -0.38 -0.03 | -0.25 | 1/18 (3.32) |
| KWSQSWLYESRNKNSVA | NASQRES | QQYHRLPLS | 0.51 0.23 0.52 0.58 0.38 0.67 | 0.48 | 2/18 (2.67) |
| KLQQSELYESRNKNSVA | QASTRES | QQYHRLPLS | 0.03 -0.12 -0.31 -0.40 -0.24 -0.10 | -0.19 | 0/18 |
| KFSQSELYESRNKNSVA | NASTRCS | QQYHRLPLS | -0.04 0.13 -0.03 0.08 -0.05 0.07 | 0.03 | 1/18 (2.20) |
| KLSQSELYESRNKNSVA | HASTRES | QQYHRLPLS | -0.20 -0.23 -0.27 -0.19 -0.40 0.06 | -0.21 | 1/18 (2.26) |
| KLEQSVLYESRNKNSVA | NASQRED | QQYHRLPLS | -0.21 -0.40 -0.43 -0.46 -0.49 -0.27 | -0.38 | 0/18 |
| KLSQSWGYESRNKNSVA | HASQRES | QQYHRLPLS | 0.63 0.30 0.46 0.50 0.22 0.30 | 0.40 | 0/18 |
| KSAQSVPYESRNKNSVA | EASTRES | QQYHRLPLS | 0.71 0.89 0.43 0.68 0.72 0.65 | 0.68 | 1/18 (3.75) |
| KLSQSVLYESRNKNSVA | NASTRCE | QQYHRLPLS | -0.30 -0.23 -0.14 -0.19 -0.24 -0.25 | -0.23 | 1/18 (1.66) |
| KLSQSMEYESRNKNSVA | NASQRES | QQYHRLPLS | -0.12 0.04 -0.14 -0.33 -0.15 0.03 | -0.11 | 1/18 (2.64) |
| KFSQSDLYESRNKNSVA | NASQRES | QQYHRLPLS | -0.20 -0.40 -0.36 -0.30 -0.38 -0.27 | -0.32 | 0/18 |
| KLSQSQLYESRNKNSVA | NASTRFS | QQYHRLPLS | 0.04 -0.26 -0.02 -0.20 -0.14 0.00 | -0.10 | 0/18 |
| KLSQSYLYESRNKNSVA | SASTRES | QQYHRLPLS | 0.27 0.27 0.20 0.16 0.18 0.35 | 0.24 | 2/18 (2.47) |
| KMSQSMLYESRNKNSVA | DASQRES | QQYHRLPLS | -0.08 -0.33 -0.44 -0.46 -0.16 0.08 | -0.23 | 0/18 |
| KLSQSVLYESRNQNSVA | NASTRMS | QQYHRLPLS | 0.32 0.33 0.34 0.28 0.24 0.39 | 0.32 | 1/18 (3.73) |
| KLSQSVLYESRNKNSVA | NASTRSS | QQYHRLPLS | -0.17 -0.14 -0.41 -0.16 -0.22 -0.34 | -0.24 | 3/18 (2.48) |
| KLQQSVLYESRNKNSVA | NASYRLS | QQYHRLPLS | 0.14 0.14 0.13 0.05 0.22 0.54 | 0.20 | 1/18 (2.90) |
| KFSPSVLYESRNKNSVA | EASTRES | QQYHRLPLS | 1.47 0.82 0.62 0.84 2.47 0.62 | 1.14 | 0/18 |
| KLPQSVCYESRNKNSVA | NASTRES | QQYHRLPLS | -0.31 -0.44 -0.49 -0.70 -0.69 -0.49 | -0.52 | 3/18 (3.16) |
| KLQQSVEYESRNKNSVA | NASQRES | QQYHRLPLS | -0.23 0.03 -0.27 0.05 -0.47 0.10 | -0.13 | 0/18 |
| KVSPSWLYESRNKNSVA | NASTRES | QQYHRLPLS | 0.02 -0.06 -0.18 -0.15 0.06 0.11 | -0.03 | 0/18 |
| KLSQSMDYESRNKNSVA | DASTRES | QQYHRLPLS | 0.04 -0.03 -0.16 -0.19 -0.10 0.06 | -0.06 | 2/18 (2.58) |
| KVSQSVPYESRNKNSVA | NASTRMS | QQYHRLPLS | 0.00 -0.37 -0.20 -0.47 -0.12 -0.10 | -0.21 | 0/18 |
| KLSQSDLYESRQKNSVA | NASQRES | QQYHRLPLS | 0.18 0.06 0.20 0.09 0.27 0.33 | 0.19 | 2/18 (2.58) |
| KMSQSWLYESRNKNSVA | NASQRMS | QQYHRLPLS | 0.12 -0.16 -0.20 -0.19 -0.24 0.00 | -0.11 | 2/18 (3.66) |
| KLEQSQLYESRNKNSVA | NASTREV | QQYHRLPLS | -0.24 -0.04 -0.11 -0.16 -0.22 0.04 | -0.12 | 1/18 (3.26) |
| KLQQSVLYESRNKNNVA | HASTRES | QQYHRLPLS | 0.73 0.77 0.56 0.27 0.44 0.61 | 0.56 | 1/18 (4.15) |
| KLQQSELYESRNKNSVA | NASYRES | QQYHRLPLS | 0.12 0.05 -0.08 -0.04 0.00 0.20 | 0.04 | 1/18 (3.09) |
| KFSQSQLYESRNKNSVA | NASQRLS | QQYHRLPLS | 0.99 1.11 0.92 0.94 0.98 1.00 | 0.99 | 0/18 |
| KVSQSVGYESRNKNSVA | NASTRES | QQYHRLPLS | 0.37 0.06 0.02 -0.28 -0.10 0.09 | 0.03 | 3/18 (3.09) |
| KVSQSNLYESRNKNSVA | NASTRCS | QQYHRLPLS | 0.26 0.14 0.02 -0.17 0.18 0.02 | 0.08 | 1/18 (2.94) |
| KFSQSVLYESRNKNSVA | NASQRLS | QQYHRLPLS | 0.35 0.44 -0.12 -0.06 0.03 0.21 | 0.14 | 0/18 |
| KLPQSELYESRNKNSVA | QASQRES | QQYHRLPLS | 0.65 0.60 -0.32 0.61 0.19 0.25 | 0.33 | 1/18 (1.98) |
| KVSQSVLYESRNKNNVA | DASTRES | QQYHRLPLS | -0.32 -0.31 -0.45 -0.39 -0.37 -0.25 | -0.35 | 1/18 (2.38) |
| KLEQSALYESRNKNSVA | NASQRES | QQYHRLPLS | -0.28 -0.29 -0.35 -0.42 -0.24 -0.31 | -0.32 | 2/18 (2.70) |
| FLSQSYLYESRNKNSVA | NASTRES | QQYHRLPLS | 0.12 0.00 0.29 0.19 0.14 0.29 | 0.17 | 0/18 |

Values of this round are not directly comparable with the first-round values of the same sequences. Empty control strains, which show no peptide, gave a signal in 4% of pairings with all light chain designs; the median was 2.64 and 95% of these signals were weaker than 1.59. No background was subtracted. For each scFv, signals with the empty controls are counted beside the result, with their mean in brackets.